# Assay results: PubChem BioAssay AID588492 (Sanford-Burnham Center for Chemical Genomics, 2011)
# This is a selection; strong and weak results do not stand in their true shares. Active and inactive are the calls of the source.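 How the source made its calls: active means compounds giving at least 50% protection of heart cells from peroxide-induced death in the single-dose screen, raw or plate-pattern-corrected value; inactive means the rest.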
# Test: H9c2 cardiomyocyte survival under peroxide injury – uHTS, H9c2 cells, ATPLite luminescence, primary screen (AID 588492);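 further: 0% = DMSO wells with peroxide and 100% = DMSO wells without peroxide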
# Conditions: H9c2 cardiomyocytes, 2 h, at 20 µM, hits give high values
row,Compound,protection from H2O2 cell death
1,CCCN1CCC(Nc2cc(OC)cc(OC)c2)CC1,inactive: -7%
2,O=c1[nH]c2ccccc2n1C1CCN(C(c2ccccc2)c2nnnn2C2CCCC2)CC1 (configuration not stated),inactive: 8.7%
3,Cc1cc(N(CCCl)CCCl)ccc1C=O,inactive: -4.1%
4,c1ccc(CN2CCC(Nc3ccccc3)CC2)cc1,inactive: 1.1%
5,CN(C)C1(CNC(=O)c2cccc(C#N)c2)CCCCC1,inactive: 2.8%
6,CC(C)(C)n1nnnc1C(c1cccc2ccccc12)N1CCC(n2c(=O)[nH]c3ccccc32)CC1 (configuration not stated),inactive: -11.8%
7,CC(C)(C)OC(=O)N1CCC(N(C(=O)c2ccccc2)c2ccc(Cl)cc2)CC1,inactive: 2.5%
8,N#Cc1ccc(C(=O)NCC2(N3CCCCC3)CCCCC2)cc1,inactive: -1.9%
9,N/C(=N\O)c1c(N)no[n+]1[O-],inactive: 2.2%
10,COc1cccc(C(c2nnnn2C(C)(C)C)N2CCC(n3c(=O)[nH]c4ccccc43)CC2)c1OC (configuration not stated),inactive: 14.1%
11,CCOC(=O)N1CCC(Nc2ccc(C)cc2)CC1,inactive: 9.3%
12,CCCCn1nnnc1C(c1cccc(OC)c1OC)N1CCC(n2c(=O)[nH]c3ccccc32)CC1 (configuration not stated),inactive: 13.3%
13,O=c1[nH]c2ccccc2n1C1CCN(C(c2cccs2)c2nnnn2C2CCCC2)CC1 (configuration not stated),inactive: 27.6%
14,O=C(OC1CN2CCC1CC2)C1c2ccccc2C=Cc2ccccc21 (configuration not stated),inactive: 7.5%
15,O=C(NCC1(N2CCOCC2)CCCCC1)c1cc(Br)ccc1Cl,inactive: 1.1%
16,COc1cc(C(=O)NCC2(N3CCOCC3)CCCCC2)cc(OC)c1C,inactive: 5.8%
17,CCCCn1nnnc1C(c1ccccc1)N1CCC(n2c(=O)[nH]c3ccccc32)CC1 (configuration not stated),inactive: 19.3%
18,O=c1[nH]c2ccccc2n1C1CCN(C(c2ccnc3ccccc23)c2nnnn2C2CCCC2)CC1 (configuration not stated),inactive: 7.4%
19,COc1ccc(C(=O)NCC2(N3CCOCC3)CCCCC2)cc1OC,inactive: 1.8%
20,O=c1[nH]c2ccccc2n1C1CCN(C(c2cccs2)c2nnnn2C2CCCCC2)CC1 (configuration not stated),inactive: 22.9%
21,CCC(CO)(C(=O)OC1CN2CCC1CC2)c1ccccc1 (configuration not stated),inactive: 4.1%
22,COc1cccc(C(=O)N(c2cc(C)cc(C)c2)C2CCN(C(=O)OC(C)(C)C)CC2)c1,inactive: -3.1%

row,Compound,protection from H2O2 cell death
1,COc1cc(OC)cc(C(=O)NCC2(N3CCOCC3)CCCCC2)c1,inactive: -3.6%
2,COc1cccc(C(c2nnnn2C2CCCC2)N2CCC(n3c(=O)[nH]c4ccccc43)CC2)c1OC (configuration not stated),inactive: 4.5%
3,CN1CCC(Nc2ccc(Cl)cc2)CC1,inactive: -4.1%
4,CN1CCC(Nc2ccc(F)c(Cl)c2)CC1,inactive: 6.1%
5,CCOc1ncccc1C(=O)NCC1(N2CCOCC2)CCCCC1,inactive: 2.1%
6,CCCOc1ccc(C(=O)NCC2(N(C)C)CCCCC2)cc1,inactive: 1.6%
7,O=c1[nH]c2ccccc2n1C1CCN(C(c2cc3ccccc3o2)c2nnnn2C2CCCC2)CC1 (configuration not stated),inactive: 6.4%
8,O=C(O)C1(Nc2ccccc2)CCN(Cc2ccccc2)CC1,inactive: 12.4%
9,CC(C)(C)OC(=O)N1CCC(Nc2ccccc2)CC1,inactive: -2.8%
10,CC(C)(C)n1nnnc1C(c1ccnc2ccccc12)N1CCC(n2c(=O)[nH]c3ccccc32)CC1 (configuration not stated),inactive: 7.3%
11,COc1ccc(C(c2nnnn2C2CCCCC2)N2CCC(n3c(=O)[nH]c4ccccc43)CC2)cc1 (configuration not stated),inactive: 15.8%
12,CCN1CCC(Nc2cccc(F)c2)CC1,inactive: 12.5%
13,Cc1ccccc1NC1(C#N)CCN(Cc2ccccc2)CC1,inactive: -6.4%
14,Cn1c(=O)[nH]cc(N(CCCl)CCCl)c1=O,inactive: -1.3%
15,CN(C)c1ccc(C(=O)NCC2(N3CCCCC3)CCCCC2)cc1,inactive: 1.9%
16,O=C(NCC1(N2CCCCC2)CCCCC1)c1ccco1,inactive: 7.3%
17,O=c1[nH]c2ccccc2n1C1CCN(C(c2ccnc3ccccc23)c2nnnn2C2CCCCC2)CC1 (configuration not stated),inactive: 13.4%
18,COc1cc(OC)cc(C(=O)NCC2(N3CCCCC3)CCCCC2)c1,inactive: 2.8%
19,CCC(c1nnnn1C1CCCCC1)N1CCC(n2c(=O)[nH]c3ccccc32)CC1 (configuration not stated),inactive: 10.4%
20,CC(=O)N(c1ccccc1)C1CCNCC1,inactive: 3.9%
21,COc1cccc(C(c2nnnn2C2CCCCC2)N2CCC(n3c(=O)[nH]c4ccccc43)CC2)c1OC (configuration not stated),inactive: 17.1%
22,Cc1ccc(NC2(C#N)CCN(Cc3ccccc3)CC2)cc1,inactive: 1.9%

row,Compound,protection from H2O2 cell death
1,Fc1ccccc1NC1CCN(Cc2ccccc2)CC1,inactive: 1.9%
2,Cc1ccc(C(=O)NCC2(N3CCCCC3)CCCCC2)o1,inactive: 0.5%
3,O=c1[nH]c2ccccc2n1C1CCN(C(c2ccccc2)c2nnnn2C2CCCCC2)CC1 (configuration not stated),inactive: 19.1%
4,O=c1[nH]c2ccccc2n1C1CCN(C(c2cccc3ccccc23)c2nnnn2C2CCCC2)CC1 (configuration not stated),inactive: -8.8%
5,COc1cc(C(=O)NCC2(N(C)C)CCCCC2)ccc1OC(F)F,inactive: 3.2%
6,CCOC(=O)N1CCC(Nc2cccc(C)c2)CC1,inactive: -3.9%
7,CCOc1ccc(C)cc1CN(CCCl)CCCl,inactive: 2.4%
8,O=C1CCN(Cc2ccccc2)CC1,inactive: 1.3%
9,CC(C)(C)n1nnnc1C(c1ccccc1)N1CCC(n2c(=O)[nH]c3ccccc32)CC1 (configuration not stated),inactive: 17.1%
10,CCOC(=O)N1CCC(Nc2ccc(F)cc2)CC1,inactive: 3.5%
11,COc1ccc(NC2CCN(CCc3ccccc3)CC2)c(OC)c1,inactive: -3.9%
12,O=C(NCC1(N2CCCCC2)CCCCC1)c1ccc(F)cc1,inactive: -1.2%
13,CCCCOc1ccc(C(=O)NCC2(N3CCOCC3)CCCCC2)cc1,inactive: -5%
14,CCCCn1nnnc1C(c1cc2ccccc2o1)N1CCC(n2c(=O)[nH]c3ccccc32)CC1 (configuration not stated),inactive: 12.3%
15,O=P1(N(CCCl)CCCl)SCCCS1,inactive: 0.6%
16,O=C(NCC1(N2CCOCC2)CCCCC1)c1cc2ccccc2o1,inactive: -4.7%
17,Cc1cc(C)cc(N(C(=O)c2ccccc2)C2CCN(C(=O)OC(C)(C)C)CC2)c1,inactive: 2%
18,O=c1[nH]c2ccccc2n1C1CCN(C(c2ccccc2OC(F)(F)F)c2nnnn2C2CCCCC2)CC1 (configuration not stated),inactive: -5.6%
19,O=C(NCC1(N2CCCCC2)CCCCC1)c1ccc(Cl)nc1,inactive: 3.1%
20,CCCCn1nnnc1C(c1ccc(OC)cc1)N1CCC(n2c(=O)[nH]c3ccccc32)CC1 (configuration not stated),inactive: 6.4%
21,CCOC(=O)N1CCC(Nc2ccc(OC)cc2)CC1,inactive: 4.2%
22,COc1ccc(Cl)cc1C(=O)NCC1(N2CCOCC2)CCCCC1,inactive: -3.5%

row,Compound,protection from H2O2 cell death
1,O=c1[nH]c2ccccc2n1C1CCN(C(c2cc3ccccc3o2)c2nnnn2C2CCCCC2)CC1 (configuration not stated),inactive: -9%
2,O=C(OC1CN2CCC1CC2)C1c2ccccc2Oc2ccccc21 (configuration not stated),inactive: -5.5%
3,O=C(NCC1(N2CCCCC2)CCCCC1)c1ccc(Cl)s1,inactive: 2.2%
4,N#CC1(Nc2ccccc2)CCN(Cc2ccccc2)CC1,inactive: 0.1%
5,CCCCn1nnnc1C(c1cccs1)N1CCC(n2c(=O)[nH]c3ccccc32)CC1 (configuration not stated),inactive: 23.4%
6,CCCCn1nnnc1C(CC)N1CCC(n2c(=O)[nH]c3ccccc32)CC1 (configuration not stated),inactive: 7.2%
7,O=C(NCC1(N2CCCCC2)CCCCC1)c1cccs1,inactive: 1.2%
8,O=C(NCC1(N2CCCCC2)CCCCC1)c1ccc(=O)[nH]c1,inactive: 11.3%
9,CCC(c1nnnn1C1CCCC1)N1CCC(n2c(=O)[nH]c3ccccc32)CC1 (configuration not stated),inactive: 1.9%
10,COc1ccc(C(=O)NCC2(N3CCCCC3)CCCCC2)c(OC)c1OC,inactive: -2.9%
11,CC(C)(C)OC(=O)N1CCC(N(C(=O)c2ccccc2)c2ccc(F)cc2)CC1,inactive: 6.8%
12,COc1ccc(C(=O)NCC2(N3CCCCC3)CCCCC2)cc1,inactive: -2.5%
13,Cc1cccc(NC2(C#N)CCN(Cc3ccccc3)CC2)c1,inactive: 1.5%
14,CSc1ccccc1C(=O)NCC1(N2CCCCC2)CCCCC1,inactive: -0.4%
15,O=C(NCC1(N2CCCCC2)CCCCC1)c1cncc(Br)c1,inactive: -0.9%
16,CN1CCC(Nc2cccc(F)c2)CC1,inactive: 10.1%
17,CCCOc1ccc(C(=O)NCC2(N(C)C)CCCCC2)cc1OC,inactive: -0.1%
18,Cc1ccc(C(=O)NCC2(N(C)C)CCCCC2)o1,inactive: -2.3%
19,COc1ccc(C(c2nnnn2C2CCCC2)N2CCC(n3c(=O)[nH]c4ccccc43)CC2)cc1 (configuration not stated),inactive: 4.7%
20,CN(C)c1cccc(C(=O)NCC2(N3CCCCC3)CCCCC2)c1,inactive: -5.7%
21,COc1ccc(CN(CCCl)CCCl)cc1Cl,inactive: -1.1%
22,CCCCn1nnnc1C(c1ccccc1OC(F)(F)F)N1CCC(n2c(=O)[nH]c3ccccc32)CC1 (configuration not stated),inactive: -2.5%

row,Compound,protection from H2O2 cell death
1,CC(C)c1ccc(NC2CCN(C(=O)OC(C)(C)C)CC2)cc1,inactive: -15.2%
2,CCCCn1nnnc1C(c1ccnc2ccccc12)N1CCC(n2c(=O)[nH]c3ccccc32)CC1 (configuration not stated),inactive: 10.8%
3,CCC(c1nnnn1C(C)(C)C)N1CCC(n2c(=O)[nH]c3ccccc32)CC1 (configuration not stated),inactive: 9.1%
4,O=C(NCC1(N2CCOCC2)CCCCC1)c1cc(F)c(F)cc1Cl,inactive: 0.6%
5,COc1cc(OC)c(C(=O)NCC2(N(C)C)CCCCC2)cc1OC,inactive: -1.3%
6,O=C(NCC1(N2CCCCC2)CCCCC1)c1cccc(C(F)(F)F)c1,inactive: 3.5%
7,CCCCn1nnnc1C(c1cccc2ccccc12)N1CCC(n2c(=O)[nH]c3ccccc32)CC1 (configuration not stated),inactive: -4%
8,COc1ccc(NC2CCN(C(=O)OC(C)(C)C)CC2)cc1,inactive: 3%
9,CC(C)c1ccc(C(=O)NCC2(N3CCOCC3)CCCCC2)cc1,inactive: 1.7%
10,CN1CCN(CCOC(=O)C(O)(c2ccccc2)c2ccccc2)CC1,inactive: 3.1%
11,O=C(NCC1(N2CCOCC2)CCCCC1)c1cc(=O)[nH]c2ccccc12,inactive: -2.5%
12,COc1cc(C(=O)NCC2(N3CCCCC3)CCCCC2)ccc1OC(F)F,inactive: 0.5%
13,O=C(NCC1(N2CCCCC2)CCCCC1)c1ccc(OC(F)F)cc1,inactive: -1.2%
14,CC(C)(C)n1nnnc1C(c1ccccc1OC(F)(F)F)N1CCC(n2c(=O)[nH]c3ccccc32)CC1 (configuration not stated),inactive: -6.1%
15,O=C(NCC1(N2CCCCC2)CCCCC1)c1cccc([N+](=O)[O-])c1,inactive: 11.1%
16,CSc1ccc(C(=O)NCC2(N3CCOCC3)CCCCC2)cc1,inactive: 16.1%
17,N#CC1(Nc2ccccc2)CCN(CCc2ccccc2)CC1,inactive: -2.1%
18,O=c1[nH]c2ccccc2n1C1CCN(C(c2ccccc2OC(F)(F)F)c2nnnn2C2CCCC2)CC1 (configuration not stated),inactive: -1.7%
19,CCN1CCC(Nc2ccc(Cl)cc2)CC1,inactive: -3.1%
